Source: PubChem BioAssay AID624172 (National Center for Advancing Translational Sciences (NCATS), 2012)
The list shows a part of the results, in another mix than the full data. Some tests of the compounds listed are not included; inactive here does not mean inactive elsewhere. The source made the active and inactive calls. The call rests on the fitted dose curve; in most records, active means well fitted activation curve with a large enough effect; inconclusive means small, poorly fitted or top-dose-only effect; inactive means no such curve, though single readings can be large or run the other way.

Sequences of proteins named here, by UniProt entry; tags and fusion partners are left off. A change or cut given only in a name is not applied to a line headed by its entry.
UniProt P43220, whole entry, stated change not applied: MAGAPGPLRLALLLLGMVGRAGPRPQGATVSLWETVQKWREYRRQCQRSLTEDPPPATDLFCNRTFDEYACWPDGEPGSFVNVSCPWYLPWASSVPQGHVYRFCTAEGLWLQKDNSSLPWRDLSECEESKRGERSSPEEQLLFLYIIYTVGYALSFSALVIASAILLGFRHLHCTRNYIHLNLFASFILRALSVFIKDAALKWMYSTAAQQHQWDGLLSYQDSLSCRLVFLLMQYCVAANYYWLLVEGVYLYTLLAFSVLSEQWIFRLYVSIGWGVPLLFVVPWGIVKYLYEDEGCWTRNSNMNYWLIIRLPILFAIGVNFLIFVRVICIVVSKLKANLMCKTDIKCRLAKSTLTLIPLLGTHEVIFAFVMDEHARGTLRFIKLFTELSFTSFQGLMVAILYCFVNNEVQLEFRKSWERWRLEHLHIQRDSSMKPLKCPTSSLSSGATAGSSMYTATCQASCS

What follows are compounds tested against Glucagon-like peptide 1 receptor (Homo sapiens) (UniProt P43220) (assay: qHTS of GLP-1 Receptor Agonists). Conditions: HEK293 GLP-1R CRE-luciferase, luminescence, 4-6 h, cells express a hypersensitive GLP-1R form; at 45.6 µM (top of the series).
From the text: The overall goal of this project was to develop a novel assay for discovering small molecule ligands for class B1 G protein-coupled receptors (GPCRs). Very few agonists (or inverse agonists) with generally weak activity for this entire group of physiologically important receptors are known to date. To establish proof-of-principle that this critical bottleneck can be overcome with a suitable screening approach, our studies focused on the class B1 receptor for glucagon-like peptide-1 (GLP-1R), a potential therapeutic target for diabetes and neurodegenerative disease.
The assay was developed in a "mix and measure" format using a cell-based functional readout. Toward this goal, stably transfected HEK293 cell clones were established that co-express (i) a cAMP-responsive luciferase reporter gene, and (ii) GLP-1Rs that upon ligand interaction either stimulate (agonists) or inhibit (inverse agonists) luciferase activity. In different cell lines to be used for screening, expressed GLP-1Rs are specifically optimized for high sensitivity detection of either weak agonists (hypersensitive receptor) or inverse agonists (constitutively active receptor mutant). In addition, control cell lines were developed that express either the cAMP-responsive reporter gene without recombinant GLP-1Rs (enabling initial exclusion of GLP-1R independent effects of candidate probes), or the reporter gene together with wild type GLP-1Rs (for confirmation of probe activity at this receptor), or the reporter gene in combination with the constitutively active orphan receptor GPR119 (enabling initial exclusion of GLP-1R independent inhibitory effects of candidate inverse agonists).
To that end, this assay was optimized for 1536-well format and screened against the MLSMR.
NIH Molecular Libraries Probe Production Network [MLPCN]
NIH Chemical Genomics Center [NCGC]
PI Name: Martin Beinborn, Tufts Medical Center
In a white solid 1536-well plate, 6 uL of cells are dispensed in DMEM without phenol red, 10% Nu serum, and 1% pen-strep medium. The plates are then incubated for 12 hours at 37 deg C at 5% CO2 before 23 nL of compounds are added. After a 4-6 hr incubation at37 deg C and 5% CO2, 3 uL of detection reagent are added and after a 12 min incubation at RT, a luminescent read is obtained on the ViewLux.
Further: % of control where 0% means no effect.

Row | Compound | activation
1 | CCN1CCCC(OC(=O)C2(O)c3ccccc3C=Cc3ccccc32)C1 (stereo not drawn) | inactive: 0.541%
2 | Cc1cc(C(=O)NCC2(N3CCCCC3)CCCCC2)ccc1[N+](=O)[O-] | inactive: 7.36%
3 | O=C(NCC1(N2CCCCC2)CCCCC1)c1cccc(Br)c1 | inactive: 7.61%
4 | COc1ccc(C(=O)NCC2(N(C)C)CCCCC2)cc1 | inactive: 1.15%
5 | CCOc1cccc(C(=O)NCC2(N(C)C)CCCCC2)c1 | inactive: 11%
6 | C=CCN1CCN(CCOC(=O)C(O)(c2ccccc2)c2ccccc2)CC1 | inactive: -0.853%
7 | O=C(NCC1(N2CCCCC2)CCCCC1)c1cc(F)c(F)cc1Cl | inactive: -0.188%
8 | CN1CCCC(OC(=O)C(O)(c2ccccc2)c2ccccc2)C1 (stereo not drawn) | inactive: 16.7%
9 | CCCCOc1ccccc1C(=O)NCC1(N(C)C)CCCCC1 | inactive: -4.56%
10 | Cc1ccccc1C(=O)NCC1(N2CCCCC2)CCCCC1 | inactive: 3.88%
11 | CN(C)C1(CNC(=O)c2ccccc2[N+](=O)[O-])CCCCC1 | inactive: -5.72%
12 | CN(C)c1ccc(C(=O)NCC2(N(C)C)CCCCC2)cc1 | inactive: 6.67%
13 | CN(C)C1CCCC1OC(=O)C(O)(c1ccccc1)c1ccccc1 (stereo not drawn) | inactive: -2.94%
14 | CN(C)C1(CNC(=O)c2ccccc2F)CCCCC1 | inactive: -4.69%
15 | Cc1ccc(C(=O)NCC2(N3CCCCC3)CCCCC2)cc1 | inactive: 1.25%
16 | CC(C)N1C(=O)CC2(CCN(CCOC(=O)C(O)(c3ccccc3)c3ccccc3)CC2)C1=O | inactive: -0.931%
17 | CN(C)C1(CNC(=O)c2cccc(Cl)c2)CCCCC1 | inactive: -0.883%

Row | Compound | activation
18 | CCN(CC)CC(C)C(C)OC(=O)C(O)(c1ccccc1)c1ccccc1 (stereo not drawn) | inactive: 6.39%
19 | COc1cc(SC)ccc1C(=O)NCC1(N(C)C)CCCCC1 | inactive: 13.3%
20 | CN1[C@@H]2CC[C@H]1CC(OC(=O)C(O)(c1ccccc1)c1ccccc1)C2 (stereo partly drawn) | inactive: -6.06%
21 | O=C(NCC1(N2CCCCC2)CCCCC1)c1cc([N+](=O)[O-])ccc1Cl | inactive: 1.36%
22 | CN(C)c1cccc(C(=O)NCC2(N(C)C)CCCCC2)c1 | inactive: -22.1%
23 | CC(C)Oc1ccc(C(=O)NCC2(N(C)C)CCCCC2)cc1 | inactive: 7.53%
24 | O=C(OCCN1CCCC1)C(O)(c1ccccc1)c1ccccc1 | inactive: -3.72%
25 | COc1ccc(Br)c(C(=O)NCC2(N3CCCCC3)CCCCC2)c1 | inactive: -2.18%
26 | C=C(C)C#CC(O)(C(=O)OC1CCN(C)CC1)c1ccccc1 (stereo not drawn) | inactive: -1.06%
27 | O=C(OC1CN2CCC1CC2)C(CO)(c1ccccc1)c1ccccc1 (stereo not drawn) | inactive: -0.34%
28 | COc1cccc(C(=O)NCC2(N3CCOCC3)CCCCC2)c1 | inactive: -7.35%
29 | O=C(NCC1(N2CCCCC2)CCCCC1)c1cccc(Cl)c1 | inactive: 1.77%
30 | COc1cccc(C(=O)NCC2(N3CCCCC3)CCCCC2)c1 | inactive: 4.59%
31 | COc1ccc(Cl)cc1C(=O)NCC1(N(C)C)CCCCC1 | inactive: 2.6%
32 | COc1cc(C(=O)NCC2(N(C)C)CCCCC2)c([N+](=O)[O-])cc1OC | inactive: 0.929%
33 | CN(C)C1(CNC(=O)c2ccc(Br)cc2)CCCCC1 | inactive: 10.8%
